Paper PMC11550293, “Biochemical characterization of a recombinant laccase from Halalkalibacterium halodurans C-125 and its application in the biotransformation of organic compounds” (Biotechnology Letters, 2024)

The chains behind the UniProt entries cited, without tags or fusion partners. Residues count along the entry.
UniProt Q9KB49, 24-500: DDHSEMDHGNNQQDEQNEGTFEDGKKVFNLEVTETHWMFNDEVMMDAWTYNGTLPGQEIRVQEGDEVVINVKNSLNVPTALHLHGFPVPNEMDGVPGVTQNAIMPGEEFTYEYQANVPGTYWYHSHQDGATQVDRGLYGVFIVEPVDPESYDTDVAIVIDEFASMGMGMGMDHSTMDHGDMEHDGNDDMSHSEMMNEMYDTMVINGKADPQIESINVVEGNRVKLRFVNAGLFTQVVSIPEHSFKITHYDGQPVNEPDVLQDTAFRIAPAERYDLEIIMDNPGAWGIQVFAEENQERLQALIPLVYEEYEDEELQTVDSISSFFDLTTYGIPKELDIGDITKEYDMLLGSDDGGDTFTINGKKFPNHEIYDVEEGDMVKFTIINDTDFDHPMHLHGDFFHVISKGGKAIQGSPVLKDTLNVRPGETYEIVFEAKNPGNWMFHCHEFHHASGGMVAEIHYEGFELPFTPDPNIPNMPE

Biological target: rLac-HhC125 (Halalkalibacterium halodurans, UniProt Q9KB49)
Test: residual SGZ oxidation at […] nm
Format: biochemical
Conditions: 1000 µM; 1 mM inhibitor, 0 min exposure; SGZ substrate 0.025 mM, 100 mM Tris-HCl pH 8, 2 mM CuSO4

Structure (SMILES): [N-]=[N+]=N
- Residual activity (%) ± SD (0 min): 64.2 ± 3%
